Laboratory results from patent US8277777B2, “Compound having affinity for amyloid” (Nihon Medi-Physics Co., Ltd., priority 2006, dated 2012).

The chains behind the UniProt entries cited, without tags or fusion partners. Residues count along the entry.
UniProt P05067, 672-711 limits assumed: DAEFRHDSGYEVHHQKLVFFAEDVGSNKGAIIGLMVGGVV

Molecular target: T1, amyloid (aggregated Aβ1-40) (Homo sapiens, UniProt P05067)
T1 construct: purchased Peptide Institute, INC
Assay: in vitro amyloid binding test (inhibition of [125I]3′-I-BTA-0 binding)
Details: [125I]3′-I-BTA-0 400 pmol/L, amyloid 1 μmol/L, 0.1% BSA phosphate buffer pH 7.4, 22°C, 3 hours
Method: The resulting samples were placed in each well (about 0.3 mL in volume) of a 96-well microplate.
The measured radioactivity level was defined as the background radioactivity level, and used in the calculation of the inhibition ratio (hereinafter referred to as BG).
(9) Using the radioactivity levels measured above in (7) and (8), the inhibition ratio was determined by the following formula (1).
A graph in which values converted by probit transformation from the obtained inhibition ratios were plotted relative to logarithms of concentrations of compounds for evaluation was prepared to obtain an approximate straight line by the least square method. Using the line, the concentration of each compound for evaluation was determined, at which the radioactivity level is half of the level of the sample free from each compound for evaluation, and was defined as a 50% inhibition concentration of each compound (hereinafter referred to as IC50% value).

Structure (SMILES): Cc1ccc2c(c1)sc(-c1ccc(N(C)C)cc1)[n+]2C [Thioflavin T, reference compound]
- IC50: > 1000 nM
